How the values were obtained:
[1] = PARADIGMS study: fingolimod compared to interferon beta-1a (Avonex) in pediatric MS; format: in vivo, human; conditions: conservative estimate from upper limit of the confidence interval of the ARR ratio
Text: In the completed PARADIGMS study, fingolimod was compared to interferon (IFN) beta-1a (Avonex). Participants treated with IFN beta-1a experienced 120 MS relapses in 163 participant-years of exposure, while fingolimod treated participants experienced 25 MS relapses in 180 participant-years of exposure. The annualized relapse rate (ARR) (i.e. the number of MS relapses per year) was 0.122 in the fingolimod group and 0.675 in IFN beta-1a group.
In the PARADIGMS study the ARRratio (fingolimod/interferon) was 0.18 (95% CI: 0.11; 0.30) (Chitnis et al 2018). Taking the upper limit of the confidence interval as a conservative estimate, would result in ARR being 3.3-times higher on interferon versus fingolimod.

[2] = cited from earlier work

B1: interferon (IFN) beta-1a (protein, UniProt P01574 22-187, looked up)
Interferon beta: MSYNLLGFLQRSSNFQCQKLLWQLNGRLEYCLKDRMNFDIPEEIKQLQQFQKEDAALTIYEMLQNIFAIFRQDSSSTGWNETIVENLLANVYHQINHLKTVLEEKLEKEDFTRGKLMSSLHLKRYYGRILHYLKAKEYSHCAWTIVRVEILRNFYFINRLTGYLRN
modifications: glycosylated, CHO-expressed (Avonex)
notes: interferon beta-1a (Avonex), comparator in the … study
ARR on interferon versus fingolimod (fold higher) [1]: 3.3 times | annualized relapse rate (ARR) (i.e. the number of MS relapses per year) ([2]; PARADIGMS study, pediatric MS participants): 0.675 | number of MS relapses experienced ([2]; PARADIGMS, 163 participant-years of exposure (IFN beta-1a), 180 participant-years (fingolimod)): 120

From patent publication US20240343821A1, “OFATUMUMAB FOR TREATING PEDIATRIC MS” (NOVARTIS AG, priority 2021, published 2024)
